Laboratory results published in patent US12139480B2, “5-thiazolecarboxamide kinase inhibitor and uses thereof” (iOmx Therapeutics AG, priority 2018, dated 2024).

By UniProt entry, the sequences of proteins in these tests, tags left out. Residues count along the entry.
UniProt P29320, 21-983: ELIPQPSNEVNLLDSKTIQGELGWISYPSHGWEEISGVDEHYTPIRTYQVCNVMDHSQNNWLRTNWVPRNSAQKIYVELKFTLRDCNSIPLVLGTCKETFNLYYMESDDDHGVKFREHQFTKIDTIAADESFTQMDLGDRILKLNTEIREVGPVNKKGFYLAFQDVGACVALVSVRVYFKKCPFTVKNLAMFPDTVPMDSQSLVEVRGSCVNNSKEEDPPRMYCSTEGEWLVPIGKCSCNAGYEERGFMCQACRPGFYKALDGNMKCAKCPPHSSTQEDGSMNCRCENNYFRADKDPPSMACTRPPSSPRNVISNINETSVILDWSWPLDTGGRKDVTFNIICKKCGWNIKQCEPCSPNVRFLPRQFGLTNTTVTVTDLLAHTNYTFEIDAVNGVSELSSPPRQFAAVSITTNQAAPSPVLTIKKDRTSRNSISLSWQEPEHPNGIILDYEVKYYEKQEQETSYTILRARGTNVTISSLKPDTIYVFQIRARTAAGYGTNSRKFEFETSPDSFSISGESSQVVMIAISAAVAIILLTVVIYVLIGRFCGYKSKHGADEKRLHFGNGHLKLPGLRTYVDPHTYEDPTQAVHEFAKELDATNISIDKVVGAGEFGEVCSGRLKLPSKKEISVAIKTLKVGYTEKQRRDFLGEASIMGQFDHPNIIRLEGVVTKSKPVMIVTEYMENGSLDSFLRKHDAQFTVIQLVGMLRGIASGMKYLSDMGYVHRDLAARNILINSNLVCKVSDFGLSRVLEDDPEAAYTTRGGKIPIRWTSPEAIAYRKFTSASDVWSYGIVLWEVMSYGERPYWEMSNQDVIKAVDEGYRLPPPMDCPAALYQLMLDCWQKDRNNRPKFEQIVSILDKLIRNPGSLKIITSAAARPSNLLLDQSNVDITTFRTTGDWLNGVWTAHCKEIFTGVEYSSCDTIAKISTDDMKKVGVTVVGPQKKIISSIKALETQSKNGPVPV
UniProt P54762, 18-984: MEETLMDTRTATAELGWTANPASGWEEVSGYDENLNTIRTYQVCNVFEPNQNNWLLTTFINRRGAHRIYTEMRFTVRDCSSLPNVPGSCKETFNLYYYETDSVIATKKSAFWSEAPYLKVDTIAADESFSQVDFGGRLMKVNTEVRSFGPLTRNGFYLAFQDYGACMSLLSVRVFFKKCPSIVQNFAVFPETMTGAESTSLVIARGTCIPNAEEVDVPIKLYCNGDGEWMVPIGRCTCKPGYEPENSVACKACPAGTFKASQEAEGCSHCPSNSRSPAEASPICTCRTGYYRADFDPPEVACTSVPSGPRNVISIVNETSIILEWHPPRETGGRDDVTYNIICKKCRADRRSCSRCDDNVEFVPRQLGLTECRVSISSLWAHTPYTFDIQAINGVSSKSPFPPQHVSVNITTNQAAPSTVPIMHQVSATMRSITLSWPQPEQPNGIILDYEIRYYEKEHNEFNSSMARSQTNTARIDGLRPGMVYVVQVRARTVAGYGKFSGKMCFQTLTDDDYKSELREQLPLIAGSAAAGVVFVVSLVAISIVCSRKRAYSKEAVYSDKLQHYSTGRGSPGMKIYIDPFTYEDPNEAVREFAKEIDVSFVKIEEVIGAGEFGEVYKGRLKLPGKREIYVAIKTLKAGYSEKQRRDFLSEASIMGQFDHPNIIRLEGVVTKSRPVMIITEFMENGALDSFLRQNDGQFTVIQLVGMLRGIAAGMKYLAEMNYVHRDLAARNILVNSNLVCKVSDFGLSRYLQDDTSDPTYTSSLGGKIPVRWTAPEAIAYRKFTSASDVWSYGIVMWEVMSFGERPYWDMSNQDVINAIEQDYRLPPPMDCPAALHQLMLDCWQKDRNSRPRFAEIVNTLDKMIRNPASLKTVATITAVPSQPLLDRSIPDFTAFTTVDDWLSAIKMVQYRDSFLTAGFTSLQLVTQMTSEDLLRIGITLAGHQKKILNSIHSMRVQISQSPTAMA
UniProt Q15375, 28-998: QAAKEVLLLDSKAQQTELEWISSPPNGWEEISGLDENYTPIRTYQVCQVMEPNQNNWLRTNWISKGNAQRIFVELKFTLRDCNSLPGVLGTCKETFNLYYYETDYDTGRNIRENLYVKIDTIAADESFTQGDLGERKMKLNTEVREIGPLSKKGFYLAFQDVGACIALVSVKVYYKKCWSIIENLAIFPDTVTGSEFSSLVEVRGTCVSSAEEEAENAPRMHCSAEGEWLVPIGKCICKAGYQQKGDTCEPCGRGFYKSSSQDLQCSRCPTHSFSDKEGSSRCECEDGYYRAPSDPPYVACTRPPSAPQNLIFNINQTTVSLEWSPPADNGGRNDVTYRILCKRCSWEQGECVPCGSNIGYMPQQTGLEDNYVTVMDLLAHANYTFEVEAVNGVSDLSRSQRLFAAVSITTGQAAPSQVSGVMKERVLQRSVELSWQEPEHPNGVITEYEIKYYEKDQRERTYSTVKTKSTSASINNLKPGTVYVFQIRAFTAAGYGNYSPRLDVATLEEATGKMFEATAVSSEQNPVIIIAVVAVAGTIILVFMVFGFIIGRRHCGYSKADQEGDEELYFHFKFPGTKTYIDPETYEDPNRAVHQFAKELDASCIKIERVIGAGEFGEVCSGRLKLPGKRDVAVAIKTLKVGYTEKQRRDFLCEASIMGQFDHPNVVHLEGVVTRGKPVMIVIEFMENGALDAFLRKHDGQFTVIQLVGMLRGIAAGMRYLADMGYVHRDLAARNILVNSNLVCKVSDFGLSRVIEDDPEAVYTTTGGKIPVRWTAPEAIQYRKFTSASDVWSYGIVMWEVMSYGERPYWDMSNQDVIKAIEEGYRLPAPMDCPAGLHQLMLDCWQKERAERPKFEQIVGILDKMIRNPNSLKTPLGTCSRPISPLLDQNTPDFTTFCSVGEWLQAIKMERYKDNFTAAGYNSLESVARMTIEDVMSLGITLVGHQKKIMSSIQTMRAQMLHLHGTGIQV

How the values were obtained:
EPHA3 = target: T1, EPHA3 (Homo sapiens, UniProt P29320); assay: single-point (1 uM) inhibition assay (ProQinase Kinase Profiler); type: biochemical; details: EPH-A3; read-out: Residual activity (%) at 1 uM
T1 construct: purchased ProQinase

EPHB1 = target: T2, EPHB1 (Homo sapiens, UniProt P54762); assay: as above; type: biochemical; details: read-out: Residual activity (%) at 1 uM
T2 construct: purchased ProQinase

EPH-A7 = EPH-A7 (Homo sapiens, UniProt Q15375); assay: as above; type: biochemical; details: read-out: Residual activity (%) at 1 uM
MDCK-wild type cells = details: dog
MDCK-MDR1 cells = details: dog

Structure (SMILES) | remaining activity at 1 µM (EPHA3) | remaining activity at 1 µM (EPHB1) | remaining activity at 1 µM (EPH-A7) | Mean recovery A > B (MDCK-wild type cells) | Mean recovery B > A (MDCK-MDR1 cells)
Cc1nc(Nc2ncc(C(=O)Nc3c(C)cccc3Cl)s2)cc(N2CCN(CCO)CC2)n1 [Compound A8, N-(2-chloro-6-methylphenyl)-2-((6-(4-(2-hydroxyethyl)piperazin-1-yl)-2-methylpyrimidin-4-yl)amino)thiazole-5-carboxamide, reference compound] | 0% | 0% | 88% |  | 
Cc1nc(Nc2ncc(C(=O)Nc3c(Cl)ccnc3C)s2)cc(N2CCN(CCO)CC2)n1 [Compound B3, N-(4-chloro-2-methylpyridin-3-yl)-2-((6-(4-(2-hydroxyethyl)piperazin-1-yl)-2-methylpyrimidin-4-yl)amino)thiazole-5-carboxamide] |  |  |  | 103% | 103%
